# Data as given in ChEMBL document CHEMBL4043104, “Conjugates of salicylaldoximes and peripheral site ligands: Novel efficient nonquaternary reactivators for nerve agent-inhibited acetylcholinesterase” (2017).
# By UniProt entry, the sequences of proteins in these tests, tags left out. Residues count along the entry.
# UniProt P22303, 32-614 limits assumed: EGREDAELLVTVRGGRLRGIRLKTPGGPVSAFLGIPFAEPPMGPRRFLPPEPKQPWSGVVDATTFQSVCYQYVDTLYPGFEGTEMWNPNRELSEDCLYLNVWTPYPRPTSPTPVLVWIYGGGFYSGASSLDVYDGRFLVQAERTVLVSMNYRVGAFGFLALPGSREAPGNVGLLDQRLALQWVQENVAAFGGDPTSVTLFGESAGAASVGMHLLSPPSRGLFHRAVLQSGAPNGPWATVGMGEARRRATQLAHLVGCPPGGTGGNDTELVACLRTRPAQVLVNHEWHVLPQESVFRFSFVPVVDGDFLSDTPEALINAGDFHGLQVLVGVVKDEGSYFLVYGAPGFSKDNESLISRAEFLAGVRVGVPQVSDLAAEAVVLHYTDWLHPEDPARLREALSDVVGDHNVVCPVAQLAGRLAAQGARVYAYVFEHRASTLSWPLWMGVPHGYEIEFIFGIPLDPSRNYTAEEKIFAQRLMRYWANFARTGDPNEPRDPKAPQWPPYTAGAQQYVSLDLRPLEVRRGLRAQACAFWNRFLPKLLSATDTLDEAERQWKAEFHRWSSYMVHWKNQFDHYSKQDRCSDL
# Assays:
# [1] = target: Acetylcholinesterase (Homo sapiens) (UniProt P22303); assay: Reactivation of tabun-induced inhibition of human AChE assessed as second order reactivation rate constant using acetylthiocholine as substrate preincubated for 30 mins followed by substrate addition measured at 5 to 180 mins by Ellman's method
# [2] = target: Acetylcholinesterase (Homo sapiens) (UniProt P22303); assay: Reactivation of VX-induced inhibition of human AChE assessed as second order reactivation rate constant using acetylthiocholine as substrate preincubated for 30 mins followed by substrate addition measured at 5 to 180 mins by Ellman's method
# [3] = target: Acetylcholinesterase (Homo sapiens) (UniProt P22303); assay: Reactivation of tabun-induced inhibition of human AChE assessed as reactivation rate constant using acetylthiocholine as substrate preincubated for 30 mins followed by substrate addition measured at 5 to 180 mins by Ellman's method
# [4] = target: Acetylcholinesterase (Homo sapiens) (UniProt P22303); assay: Reactivation of sarin-induced inhibition of human AChE assessed as second order reactivation rate constant using acetylthiocholine as substrate preincubated for 30 mins followed by substrate addition measured at 5 to 180 mins by Ellman's method
Compound,Kr [1],Kr [2],Kr [3],Kr [4]
COc1cc2c(cc1OC)CN(CC1CCN(Cc3cc(F)cc(/C=N/O)c3O)CC1)CC2,0.098 mM⁻¹ min⁻¹,6.18 mM⁻¹ min⁻¹,5.2 ×10⁻³ /min,0.153 mM⁻¹ min⁻¹
COc1cc2c(cc1OC)CN(CC1CCN(Cc3cc(Cl)cc(/C=N/O)c3O)CC1)CC2,0.382 mM⁻¹ min⁻¹,7.19 mM⁻¹ min⁻¹,3.4 ×10⁻³ /min,0.485 mM⁻¹ min⁻¹
COc1cc2c(cc1OC)CN(CC1CCN(Cc3cc(Br)cc(/C=N/O)c3O)CC1)CC2,0.412 mM⁻¹ min⁻¹,5.2 mM⁻¹ min⁻¹,2.9 ×10⁻³ /min,0.521 mM⁻¹ min⁻¹
COc1cc(/C=N/O)c(O)c(CN2CCC(CN3CCc4cc(OC)c(OC)cc4C3)CC2)c1,0.097 mM⁻¹ min⁻¹,3.1 mM⁻¹ min⁻¹,4.9 ×10⁻³ /min,0.177 mM⁻¹ min⁻¹
